The numbers were not newly measured in PMC11489250, “Optimized methods for measuring competitive binding of chemical substances to thyroid hormone distributor proteins transthyretin and thyroxine binding globulin” (Archives of Toxicology, 2024), which cites them from elsewhere.

For orientation: Ki means the dissociation constant of the complex between target and ligand, obtained from inhibition or displacement.

In the series the target is T1, Human TTR (Homo sapiens, UniProt P02766).
T1 construct: Transthyretin (prealbumin, TTR) >95% from human plasma; purchased Sigma Aldrich (Zwijndrecht, The Netherlands); host or cells: human plasma
On the set-up: method as in Hamers et al. [2020]. As to conditions: FITC-T4 110 nM, human TTR 30 nM, 4 °C, 2 h; ref Hamers et al. [2020]; read-out: TTR literature Ki; cited from earlier work.

In the case of `Oc1cc(Cl)ccc1Oc1ccc(Cl)cc1Cl` [Triclosan, triclosan], the Ki was 930 nM.
